Measured values reported in US11452709B2, “Compositions and methods for preventing and treating radiation-induced bystander effects caused by radiation or radiotherapy” (The Regents of the University of Colorado, priority 2017, dated 2022).

Legend:
CTSB protease = target: T1, CTSB protease (Homo sapiens, UniProt P07858); experiment: CTSB protease activity inhibition in vitro (z-Arg-Arg-AMC substrate); format: biochemical
T1 construct: purchased Sino Biological Inc. 10483-H08H-10

[1] = target: T2, C. elegans CPR-4 protease (Caenorhabditis elegans, UniProt P43508); experiment: CPR-4 protease activity inhibition in vitro (z-Arg-Arg-AMC substrate); format: biochemical; details: 1 mM of each compound; read-out: Inhibition rate(%) of the C. elegans CPR-4 protease activity
T2 construct: a cpr-4 cDNA fragment encoding residues 16-336 was PCR amplified from the full-length cpr-4 cDNA clone; GST (N, cleaved yes); made in house; host or cells: Escherichia coli BL21(DE3)
T2 sequence (P43508 81-335): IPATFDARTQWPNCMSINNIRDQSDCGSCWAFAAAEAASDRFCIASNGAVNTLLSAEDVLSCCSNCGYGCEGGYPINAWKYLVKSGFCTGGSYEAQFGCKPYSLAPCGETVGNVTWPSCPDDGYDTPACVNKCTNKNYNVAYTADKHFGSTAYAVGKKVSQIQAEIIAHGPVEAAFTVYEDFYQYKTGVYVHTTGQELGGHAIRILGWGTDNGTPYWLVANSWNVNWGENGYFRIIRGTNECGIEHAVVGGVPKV

Inhibition rate (%) of the CTSB protease activity (CTSB protease; 1 mM of each compound): 86.12%
inhibition at 1000 µM (CTSB protease; 1 mM of each compound, read-out: Inhibition rate (%) of the CTSB protease activity): > 86%
IC50 (CTSB protease; read-out: IC50 in inhibiting the CTSB protease activity): 12.2 µM
inhibition at 1000 µM [1]: 85%
Structure (SMILES): CC(C)C[C@H](NC(=O)[C@@H](N)CCCNC(=N)N)C(=O)N[C@@H](C)C(=O)O [NH2-Arg-Leu-Ala-COOH]
IC50 in inhibiting the CTSB protease activity (CTSB protease): significantly higher than other compounds
